Among the data in ChEMBL document CHEMBL1140182, “Modeling binding modes of alpha7 nicotinic acetylcholine receptor with ligands: the roles of Gln117 and other residues of the receptor in agonist binding” (J Med Chem, 2008) are Kd values, retold here.

Protein sequences, listed by entry. Tags and fused reporters are not part of them. Residues count along the entry.
UniProt P36544, 23-502 limits assumed: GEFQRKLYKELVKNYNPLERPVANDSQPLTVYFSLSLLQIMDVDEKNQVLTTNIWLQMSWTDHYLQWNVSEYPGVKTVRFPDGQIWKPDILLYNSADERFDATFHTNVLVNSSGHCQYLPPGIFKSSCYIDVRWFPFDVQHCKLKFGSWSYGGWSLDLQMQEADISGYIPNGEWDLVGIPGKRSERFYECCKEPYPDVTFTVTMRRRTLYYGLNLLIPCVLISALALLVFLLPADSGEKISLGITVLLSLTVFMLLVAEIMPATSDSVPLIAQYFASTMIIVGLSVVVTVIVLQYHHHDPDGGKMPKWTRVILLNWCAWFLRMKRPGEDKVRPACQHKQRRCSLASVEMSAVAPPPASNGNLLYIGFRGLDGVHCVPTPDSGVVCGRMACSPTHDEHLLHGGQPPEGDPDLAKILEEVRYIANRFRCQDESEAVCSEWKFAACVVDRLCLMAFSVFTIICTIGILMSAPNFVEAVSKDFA

Structures are written as SMILES.

For this test, the target named is Neuronal acetylcholine receptor subunit alpha-7 (Homo sapiens, UniProt P36544). Briefly: Displacement of [125I]alpha-bungarotoxin from alpha7 nAChR. (Loss of bound radioactivity is the signal in a displacement assay; it reports binding, not function.)

With `CN1C[C@@]2(CN3CCC2CC3)OC1=O`, the Kd (in general, the equilibrium constant for the complex coming apart) stood at 220 nM.
